CycPeptMPDB entries from one study

PAMPA measures passive passage through an artificial lipid membrane. Values are log10 P with P in cm/s, so -5 is more permeable than -7.

{"smiles": "CCCN1CC(=O)N[C@H](CC(C)C)C(=O)N[C@@H](CC(C)C)C(=O)N2CCC[C@@H]2C(=O)N[C@H](CC(C)C)C(=O)N[C@@H](Cc2ccccc2)C(=O)N2CCC[C@H]2C1=O", "PAMPA (log10 cm/s)": "-6.95"}
{"smiles": "CC(C)C[C@@H]1NC(=O)[C@H]2CCCN2C(=O)[C@@H](CC(C)C)N(C)C(=O)[C@H](CC(C)C)N(C)C(=O)[C@@H](C)N(C)C(=O)[C@@H]2CCCN2C(=O)[C@H](Cc2ccccc2)NC1=O", "PAMPA (log10 cm/s)": "-6.67"}
{"smiles": "CC(C)C[C@H]1C(=O)N[C@@H](Cc2ccccc2)CC(=O)N2CCC[C@H]2C(=O)N(C)[C@@H](CC(C)C)C(=O)N[C@@H](Cc2ccccc2)C(=O)N2CCC[C@@H]2C(=O)N(C)[C@@H](C)C(=O)N1C", "PAMPA (log10 cm/s)": "-5.12"}
{"smiles": "CC(C)C[C@@H]1C(=O)N[C@@H](Cc2ccccc2)C(=O)N[C@@H](C)C(=O)N[C@H](CC(C)C)C(=O)N(Cc2ccccc2)CC(=O)N2CCC[C@H]2C(=O)N1C", "PAMPA (log10 cm/s)": "-5.91"}
{"smiles": "CC(C)C[C@@H]1NC(=O)[C@H]2CCCN2C(=O)[C@H](CC(C)C)N(C)C(=O)[C@@H](CC(C)C)NC(=O)C[C@H](Cc2ccccc2)NC(=O)[C@H]2CCCN2C(=O)[C@H](Cc2ccccc2)NC1=O", "PAMPA (log10 cm/s)": "-5.69"}
{"smiles": "CC(C)C[C@@H]1NC(=O)C[C@H](Cc2ccccc2)NC(=O)[C@H](Cc2ccccc2)NC(=O)[C@@H](CC(C)C)NC(=O)[C@@H]2CCCN2C(=O)[C@H](CC(C)C)N(C)C1=O", "PAMPA (log10 cm/s)": "-6.17"}
{"smiles": "CC(C)C[C@@H]1NC(=O)[C@@H]2CCCN2C(=O)[C@@H](CC(C)C)N(C)C(=O)[C@@H](CC(C)C)NC(=O)[C@H](C)N(C)C(=O)[C@H]2CCCN2C(=O)[C@H](Cc2ccccc2)NC1=O", "PAMPA (log10 cm/s)": "-6.45"}
{"smiles": "CC(C)C[C@H]1NC(=O)[C@H](C)NC(=O)[C@H](Cc2ccccc2)NC(=O)[C@@H](CC(C)C)NC(=O)[C@H]2CCCN2C(=O)[C@@H](CC(C)C)NC1=O", "PAMPA (log10 cm/s)": "-6.67"}
{"smiles": "CC(C)C[C@@H]1NC(=O)C[C@H](Cc2ccccc2)NC(=O)[C@H](Cc2ccccc2)NC(=O)[C@H](CC(C)C)N(C)C(=O)[C@H]2CCCN2C(=O)[C@H](CC(C)C)NC1=O", "PAMPA (log10 cm/s)": "-5.39"}
{"smiles": "CC(C)C[C@@H]1C(=O)N[C@@H](Cc2ccccc2)C(=O)N2CCC[C@H]2C(=O)N[C@@H](Cc2ccccc2)CC(=O)N(Cc2ccccc2)CC(=O)N[C@H](CC(C)C)C(=O)N2CCC[C@H]2C(=O)N1C", "PAMPA (log10 cm/s)": "-5.81"}
{"smiles": "CC(C)C[C@H]1NC(=O)[C@H](C)N(C)C(=O)[C@H]2CCCN2C(=O)[C@H](Cc2ccccc2)NC(=O)CN(Cc2ccccc2)C(=O)[C@@H]2CCCN2C(=O)[C@H](CC(C)C)N(C)C1=O", "PAMPA (log10 cm/s)": "-5.56"}
{"smiles": "CC(C)C[C@H]1NC(=O)[C@@H](C)N(C)C(=O)[C@H](Cc2ccccc2)NC(=O)[C@H](CC(C)C)N(C)C(=O)[C@H]2CCCN2C(=O)[C@@H](CC(C)C)NC1=O", "PAMPA (log10 cm/s)": "-5.76"}
{"smiles": "CC(C)C[C@@H]1NC(=O)[C@@H](C)N(C)C(=O)[C@H]2CCCN2C(=O)[C@H](Cc2ccccc2)NC(=O)[C@@H](CC(C)C)NC(=O)[C@@H]2CCCN2C(=O)[C@@H](CC(C)C)N(C)C1=O", "PAMPA (log10 cm/s)": "-5.51"}
{"smiles": "CC(C)C[C@H]1NC(=O)[C@H](CC(C)C)N(C)C(=O)[C@H](C)NC(=O)[C@@H]2CCCN2C(=O)[C@H](Cc2ccccc2)NC(=O)[C@H](CC(C)C)N(C)C(=O)[C@H]2CCCN2C1=O", "PAMPA (log10 cm/s)": "-5.18"}
{"smiles": "CC(C)C[C@@H]1NC(=O)[C@@H](C)NC(=O)[C@H](Cc2ccccc2)NC(=O)[C@@H](CC(C)C)NC(=O)[C@H]2CCCN2C(=O)[C@@H](CC(C)C)N(C)C1=O", "PAMPA (log10 cm/s)": "-5.93"}
{"smiles": "CC(C)C[C@@H]1NC(=O)[C@@H](CC(C)C)NC(=O)C[C@H](Cc2ccccc2)NC(=O)[C@H]2CCCN2C(=O)[C@H](Cc2ccccc2)NC(=O)CN(Cc2ccccc2)C(=O)[C@@H]2CCCN2C1=O", "PAMPA (log10 cm/s)": "-5.67"}

A selection of 2 entries from above:

structure (SMILES)	PAMPA (log10 cm/s)
CC(C)C[C@@H]1NC(=O)C[C@H](Cc2ccccc2)NC(=O)[C@H](Cc2ccccc2)NC(=O)[C@@H](CC(C)C)NC(=O)[C@@H]2CCCN2C(=O)[C@H](CC(C)C)N(C)C1=O	-6.17
CC(C)C[C@H]1NC(=O)[C@H](CC(C)C)N(C)C(=O)[C@H](C)NC(=O)[C@@H]2CCCN2C(=O)[C@H](Cc2ccccc2)NC(=O)[C@H](CC(C)C)N(C)C(=O)[C@H]2CCCN2C1=O	-5.18

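Conditions beyond the assay type are not listed; see the original paper. The list need not hold all peptides of the study. Peptides that the database sets to -10, its floor, are left out.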

Collected by the curators of CycPeptMPDB (Li et al. 2023) from Townsend et al. 2020, doi:10.26434/chemrxiv.13335941.v1.